Only a part is listed here, and it is no random draw. Active and inactive are the calls of the source. Rule as the data show it: active = activation above about 18%; inactive = the rest.

Sequences of proteins named here, by UniProt entry; tags and fusion partners are left off.
UniProt P35372, whole entry, looked up: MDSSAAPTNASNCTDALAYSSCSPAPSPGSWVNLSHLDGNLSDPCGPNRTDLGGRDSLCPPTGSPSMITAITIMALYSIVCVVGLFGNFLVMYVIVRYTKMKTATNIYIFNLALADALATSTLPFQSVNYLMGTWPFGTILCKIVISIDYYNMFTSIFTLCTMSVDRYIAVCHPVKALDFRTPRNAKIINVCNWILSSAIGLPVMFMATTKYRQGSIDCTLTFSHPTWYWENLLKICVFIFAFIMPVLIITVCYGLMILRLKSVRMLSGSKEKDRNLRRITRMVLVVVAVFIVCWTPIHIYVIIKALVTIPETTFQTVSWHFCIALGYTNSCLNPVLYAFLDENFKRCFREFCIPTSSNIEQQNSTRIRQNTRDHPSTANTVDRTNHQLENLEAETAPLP
UniProt P41143, whole entry, looked up: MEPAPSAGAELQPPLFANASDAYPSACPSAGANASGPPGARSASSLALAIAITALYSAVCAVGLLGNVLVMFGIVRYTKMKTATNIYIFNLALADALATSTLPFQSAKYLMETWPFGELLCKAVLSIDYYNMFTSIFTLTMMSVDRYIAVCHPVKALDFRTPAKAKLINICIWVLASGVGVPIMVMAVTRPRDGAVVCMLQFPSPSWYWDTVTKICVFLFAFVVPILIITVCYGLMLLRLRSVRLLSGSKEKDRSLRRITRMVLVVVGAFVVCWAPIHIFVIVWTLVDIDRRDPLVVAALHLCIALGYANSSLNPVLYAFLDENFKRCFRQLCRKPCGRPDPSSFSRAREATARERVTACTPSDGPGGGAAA

The target in the test is Mu-type opioid receptor (Homo sapiens) + Delta-type opioid receptor (Homo sapiens) (UniProt P35372+P41143). Briefly: inducers of mu-delta opioid receptor heterodimers – cell-based, luminescence, primary screen (AID 504326).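 Also: 0% = vehicle-treated cells and 100% = reference agonist.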 The settings on record: cells, OPRM1-OPRD1 heterodimerization, at 9.3 µM, active compounds read high.
For the compound `CC(C)[C@H](NC(=O)N1CCn2c1nc1ccccc12)C(=O)N1CCCCC1`, the activation is inactive: -0.34%. Next, `COc1ccc(/C=N/c2nc3ccccc3n2CCN2CCCCC2)cc1OC`: inactive: -1.05%. The value for `CC(=O)Nc1ccc(NC(=O)Cn2c(CC(=O)N3CCCC3)nc3ccccc32)cc1` was inactive: -2%. Next, `Cc1cc(SC(NC(=O)c2ccccc2)C(Cl)(Cl)Cl)nc(C(C)C)n1` (stereo not drawn): inactive: 0.2%; `Cc1ccc2c(c1)C1CN(C)CCC1N2C(=O)COc1ccc(N(C)C(=O)C(C)(C)C)cc1` (stereo not drawn): inactive: -1.56%.

Take `Nc1ncnc2c1ncn2CCN1CCOCC1`: the activation is inactive: -3.72%. The value for `CC(C)[C@H](NC(=O)N1CCn2c1nc1ccccc12)C(=O)NC1CCCCC1` was inactive: -3.73%. Consider `CCN(CC)CCNC(=S)N1CCn2c(nc3ccccc32)C1`, for which the activation is inactive: -2.38%.

Regarding `Cc1ccc2c(c1)C1CN(C)CCC1N2C(=O)c1cccs1` (stereo not drawn), the activation was inactive: -1.31%. The value for `O=C(Nc1nc2ccccc2n1CCN1CCCC1)c1ccc(Cl)cc1` was inactive: 4.12%; that for `CC1c2nc3ccccc3n2C(CC(=O)NCc2ccccn2)C(=O)N1Cc1ccccc1` (stereo not drawn) was inactive: -2.01%; that for `CC(=O)Nc1ccc(C(=O)CSc2nc3ccccc3n2CC(=O)N2CCCC2)cc1` was inactive: -1.59%.

Turning to `C[C@H](O)[C@@H]1C(=O)N2CCc3ccc(N4CCN(C)CC4)cc3[C@@H]2C[C@@H]1N(C)C(=O)NC1CCCCC1`, the activation is inactive: -0.44%. The value for `CC1CCNP(=O)(N(CCCl)CCCl)O1` (stereo not drawn) was inactive: -2.07%; that for `O=C(C1CCN(S(=O)(=O)c2cccc3cccnc23)CC1)N1CCn2c1nc1ccccc12` was inactive: -17.3%; that for `COCC(=O)N(C)[C@H]1C[C@H]2c3cc(-c4ccccc4)ccc3CCN2C(=O)[C@H]1[C@H](C)O` was inactive: -2.6%. For the compound `Cc1ccc(N(CC(=O)N2CCn3c2nc2ccccc23)S(=O)(=O)c2c(C)n[nH]c2C)cc1`, the activation was inactive: -1.41%. Next, `Cc1cc(C)cc(N(CC(=O)N2CCn3c2nc2ccccc23)S(=O)(=O)c2c(C)noc2C)c1`: inactive: -1.79%; `CCCCC(=O)Nc1nnc(/C=C/c2ccc(OC)cc2)s1`: inactive: 2.17%. The value for `CC(C)C[C@H](NC(=O)N1CCn2c1nc1ccccc12)C(=O)NCCc1ccccc1` was inactive: -1.27%; that for `Nc1ncnc2c1ncn2CCNCCc1ccccc1` was inactive: -2.53%; that for `O=C(Cn1c(C(F)(F)F)nc2ccccc21)NCCCN1CCOCC1` was inactive: -3.31%. `Cc1ccc2c(c1)C1CN(C)CCC1N2C(=O)COc1ccccc1F` (stereo not drawn): the activation is inactive: -0.7%. Next, `CCOC(=O)Nc1ccc([As](=O)(O)O)c(O)c1`: inactive: -1.41%.

In the case of `Cc1ccc(S(=O)(=O)c2nc(-c3ccccc3Cl)oc2N(C)C2CCN(C)CC2)cc1`, the activation was inactive: 0.87%. As for `COc1ccc(S(=O)(=O)N2CCn3c2nc2ccccc23)cc1`, the activation is inactive: 0.53%. Turning to `CSc1nc2ccccc2n1CC(=O)Nc1ccccc1`, the activation was inactive: -1.74%. Next, `Cc1nc2ccccc2n1CCN1CCOCC1`: inactive: -2.72%; `Cc1ccc2c(c1)C1CN(C)CCC1N2C(=O)Cc1cccs1` (stereo not drawn): inactive: 1.51%. Regarding `CN1C(=O)C2(Nc3ccccc3-c3nc4ccccc4n32)c2ccccc21` (stereo not drawn), the activation is inactive: -3.02%. The value for `CCC(C)[C@H](NC(=O)N1CCn2c1nc1ccccc12)C(=O)NCc1ccccc1` (stereo partly drawn) was inactive: 1.66%; that for `Cc1ccc(NC(=O)Cn2cnc3ccccc32)cc1C` was inactive: -0.44%; that for `Cc1ccc2c(c1)[C@@H]1CN(C)CC[C@@H]1N2C(=O)Nc1cccc(C(F)(F)F)c1` was inactive: 3.48%. Next, `CCOC(=O)c1ccccc1NC(=O)CSc1nc2ccccc2n1CC(=O)N1CCCC1`: inactive: -1.15%; `Cc1ccc(-c2csc(NC(=O)Cn3cnc4c3c(=O)n(C)c(=O)n4C)n2)cc1C`: inactive: -1.37%; `COc1ccc(N2C(=O)CC(n3cnc4ccccc43)C2=O)cc1` (stereo not drawn): inactive: -2.25%. Next, `COc1ccccc1NC(=O)Cn1cnc2c1c(=O)n(C)c(=O)n2C`: inactive: -1.91%; `CCN1C(=O)C2(Nc3ccccc3-c3nc4ccccc4n32)c2cc(OC)ccc21` (stereo not drawn): inactive: -0.16%; `O=C(Cn1cnc2c(NC(=O)OCc3ccccc3)ncnc21)NCc1ccccn1`: inactive: -0.95%. `Cc1nc2ccccc2n1CC(=O)NN`: the activation was inactive: 0%.

As for `CCc1ccc(NC(=O)Cn2c(SC)nc3ccccc32)cc1`, the activation is inactive: -0.41%. Consider `CCC(C)N(CC(C)C)C(=S)SC(NC(C)=O)C(Cl)(Cl)Cl` (stereo not drawn), for which the activation is inactive: -0.67%.

Turning to `CC1CC(C)CN(C(=O)Cn2c(SCC(=O)N3CCc4ccccc4C3)nc3ccccc32)C1` (stereo not drawn), the activation was inactive: -0.49%. `Cc1ccc(NC(=O)CCC(=O)N/N=C/C=C/c2ccccc2)cc1`: the activation is inactive: 2.24%. The value for `Cc1nc2ccccc2n1CC(=O)N/N=C\c1ccccn1` was inactive: 2.04%; that for `CC(C)NC(=O)Cn1c(SCC(=O)N2CCCc3ccccc32)nc2ccccc21` was inactive: -2.06%; that for `Cc1ccc2c(c1)C1CN(C)CCC1N2C(=O)COc1ccc(S(=O)(=O)N2CCOCC2)cc1` (stereo not drawn) was inactive: -1.3%.

`CCOC(=O)c1ccc(NC(=O)C(C)(CCl)SC)cc1` (stereo not drawn): the activation is inactive: -2.08%.

As to `O=C(Cn1c(-c2cscn2)nc2ccccc21)Nc1cc(F)ccc1F`, the activation is inactive: -1.76%.

Turning to `Cc1ccc2c(c1)C1C[N+](C)(CC(=O)c3ccc(Cl)cc3Cl)CCC1N2C(=O)c1ccc(F)cc1` (stereo not drawn), the activation was inactive: -0.81%. The value for `CCN(CC)C(=O)Cn1cnc2c1c(=O)n(C)c(=O)n2C` was inactive: -1.81%; that for `CC(C)N(C(=O)Cn1c(Cl)nc2ccccc21)C(C)C` was inactive: -1.66%.

`COc1ccc(CCNC(=O)[C@H](CC(C)C)NC(=O)N2CCn3c2nc2ccccc23)cc1OC`: the activation was inactive: -0.54%. The value for `O=C(c1ccccc1Cl)N1CCn2c1nc1ccccc12` was inactive: -2.39%; that for `CCC(NC(=O)Cn1cnc2c(=O)n(C)c(=O)n(C)c21)c1ccccc1` (stereo not drawn) was inactive: -1.17%; that for `O=C1Cn2c(nc3ccccc32)-c2ccccc2N1` was inactive: -0.33%.

With `O=C(OC1CN2CCC1CC2)c1cccc([N+](=O)[O-])c1` (stereo not drawn), the activation is inactive: -1.84%. Turning to `CCC(C)[C@H](NC(=O)N1CCn2c1nc1ccccc12)C(=O)NCC1CCCO1` (stereo partly drawn), the activation was inactive: -1.66%.

The values are drawn from PubChem BioAssay AID504326 (The Scripps Research Institute Molecular Screening Center, 2011).
